Screening results (PubChem BioAssay)
ClpP mod: qHTS Assay for Activators of ClpP | ATP-dependent Clp protease proteolytic subunit (Bacillus subtilis (strain 168)), P80244 | 340,000 compounds, 1.9% hits | Potency, µM (highest dose often 57.5 µM), for the others: at the top dose activity change, negative = active | purified B. subtilis ClpP, FRET peptide cleavage, 20 min; active means well fitted falling curve with a large enough effect; inconclusive means small, poorly fitted or top-dose-only effect; inactive means no such curve, though single readings can be large or run the other way; further: the source files actives as falling curves though it sought activators and does not explain the sign; nearly all actives have a fitted effect of over 65% in size
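FRET quenching reversal measured ClpP activation: 10 microg/mL B. subtilis ClpP at pH 8 with the FRET-FV decapeptide, read at 430 nm after 320 nm excitation. The 20-min minus 0-min signal was scaled between DMSO/no-enzyme wells and ADEP (5.8 microM final).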
TDP1 inh: TDP1 (human) enzyme inhibition; Potency, µM (highest dose often 130 µM), for the others: at the top dose activity change, negative = inhibition, usual class: inhibitors; 350,000 compounds, 0.28% hits; recombinant TDP1, AlphaScreen DNA substrate cleavage; AID 485290; further: on the % scale 0 is the no-effect control and ±100 the full control effect; nearly all actives have a fitted effect of over 40% in size
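Tdp1 1 nM final; 15 min RT w/ cpd; substrate 15 nM, 5 min; beads 10 ug/ml, 10 min; AlphaScreen read. Neg ctrl: no enzyme.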
Rango-impB inh: inhibitors of Rango-importin beta complex formation | 340,000 compounds, 0.031% hits | Potency, µM (series often up to 92.2 µM), without a hit: at the top dose inhibition of complex formation | Q14974 | Rango CFP/YFP FRET sensor + importin beta, 45 min; calls by dose curve;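 further: 0% = DMSO wells and 100% = buffer wells lacking importin beta; nearly all actives have a fitted effect of over 15% in size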
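FRET biosensor Rango (snurportin 1 IBB between N-terminal EYFP and C-terminal Cerulean), 50 nM in PBS/1 mM DTT/0.02% Tween-20/0.1% BSA, preincubated 5 min RT with compound; 0.125 microM importin beta added, 45 min RT, CFP/YFP FRET ratio read.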
PTAP TSG101 blk: blocks PTAP/TSG101 interaction to inhibit HIV-1 budding; AID 493005; Potency, µM (titrated, usually from 115 µM), without a hit: top-dose activity change, negative = inhibition, usual class: inhibitors; 340,000 tested, under 10 active; Fluorescence polarization, FITC-PTAP peptide / Tsg101 binding; active means well fitted inhibition curve with a large enough effect in the main read-out, with a control signal flat, not every such curve was filed as active; inconclusive means small, poorly fitted or top-dose-only effect, or effect the other way, or a change in a side signal; inactive means no such curve, though single readings can be large or run the other way; further: % of control where 0% means no effect
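Steps: Tsg101 binding domain dispensed (10 uM final), compounds pinned in DMSO, FITC-labeled PTAP-motif peptide added (50 nM final); after 20 min binding at room temperature, polarization measured.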
12-LOX inh: blocks human arachidonate 12S-lipoxygenase. purified 12hLO, xylenol orange hydroperoxide absorbance. 580,000 compounds, 1.1% hits. Potency, µM (series often up to 108 µM), without a hit: at the top dose activity change, negative = inhibition, usual class: inhibitors. P18054; further: on the % scale 0 is the no-effect control and ±100 the full control effect
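Purified human 12hLO at 150 nM in 25 mM Hepes, 0.01% Triton X-100, pH 7.0, preincubated 15 min at room temperature with compound. Reaction started with 40 uM arachidonic acid, 30 min at room temperature. Hydroperoxide measured by Fe-xylenol orange, 573/405 nm absorbance ratio.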
Rango release inh: inhibitors of RanGTP-induced Rango-importin beta complex dissociation. Biochemical FRET Rango-importin beta, RanGTP-induced dissociation. Potency, µM (doses to about 46.1 µM), for the others: at the highest dose activity change, negative = inhibition. 340,000 compounds, 0.071% hits. AID 540253; calls by dose curve; further: % of control where 0% means no effect; nearly all actives have a fitted effect of over 45% in size
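Two FRET readings bracket the reaction: one 5 min after compound meets Rango–importin beta, another 45 min after RanGTP-RCC1 (0.6 uM Ran, 0.2 uM RCC1, 2 mM GTP) is added. Only the second defines inhibition.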
Active calls of the source: *; u = inconclusive; x = no result; [ ] = remark or other dose. The list is not random: actives were taken first. Their share in the collection is about 2.4%. Unless noted, the call rests on the fitted dose curve; in most records, active means well fitted curve in the direction sought with a large enough effect; inconclusive means small, poorly fitted or top-dose-only effect, or another doubt; inactive means no such curve, though single readings can be large; an effect the other way counts as inactive or inconclusive. Potency means the concentration at half of the fitted maximal effect.

Sequences of proteins named here, by UniProt entry; tags and fusion partners are left off.
ATP-dependent Clp protease proteolytic subunit (Bacillus subtilis (strain 168)), P80244, UniProt P80244, whole entry, looked up: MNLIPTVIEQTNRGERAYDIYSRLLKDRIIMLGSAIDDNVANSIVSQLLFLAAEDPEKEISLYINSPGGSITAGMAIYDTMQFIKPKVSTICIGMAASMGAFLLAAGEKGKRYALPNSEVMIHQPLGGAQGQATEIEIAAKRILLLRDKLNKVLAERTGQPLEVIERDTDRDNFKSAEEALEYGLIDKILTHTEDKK

Each structure is followed by: ClpP mod, TDP1 inh, Rango-impB inh, PTAP TSG101 blk, 12-LOX inh, Rango release inh
- Cc1ccc(CNC(=O)CC2Nc3c4ccccc4nc(=S)n3C2=O)cc1 (stereo not drawn)
  x, -2%, x, x, -8%, x
- CC(=O)c1ccccc1-c1ccc2c(c1)CC(CNC(=O)Cc1c[nH]c3ccccc13)O2 (stereo not drawn)
  x, x, x, x, 2%, x
- NC(=O)CC(NC(=O)Cc1ccc(Br)cc1)c1ccc(NC2CCN(Cc3ccccc3)CC2)c([N+](=O)[O-])c1 (stereo not drawn)
  2%, x, 52µM*, 2%, u, 0%
- O=C(Nc1nc(-c2ccco2)c(-c2ccco2)s1)C1CCC1
  u, 8%, u, 4%, 11µM*, 12%
- CNC(=O)CN1CCCC1c1ccsc1 (stereo not drawn)
  x, x, x, x, -26%, x
- CSc1ccc(S(=O)(=O)N2CCN(C)CC2)cc1
  x, x, x, x, -7%, x
- COc1c(N)c2ccccc2[nH]c1=O
  32µM*, 3%, 0%, -6%, 34%, 0%
- O=c1[nH]c2ccccc2c2ccccc12
  -23%, -10%[56.1 µM], -2%, -7%, -4%, -12%
- Cn1nc(C(=O)N(CC(N)=O)c2ccccc2)c2ccccc2c1=O
  x, x, x, x, -6%, x
- O=C(OCc1cc(=O)n2c(n1)sc1ccccc12)c1ccc2c(=O)n3c(nc2c1)CCC3
  -27%, 50µM*, -6%, -5%, u, 15%
- Cc1ccc2c(CC(=O)OCc3cc(=O)n4c(n3)sc3ccccc34)coc2c1
  2%, 25µM*, -4%, 0%, 5%, -16%
- Cc1cccc(NC(=O)COC(=O)c2ccc3c(=O)n4c(nc3c2)CCC4)c1
  -8%, 4%, u, -2%, -3%, 0%
- Cc1ccc(-c2nc3ccc(C)cn3c2Cc2ccsc2)cc1
  4%, x, x, x, u, x
- Cc1ccc2nc(C(C)(C)C)c(Cc3ccsc3)n2c1
  5%, x, x, x, 6.3µM*, x
- CCCc1nc2c(C)cc(Br)cn2c1Cc1ccsc1
  -5%, x, x, x, u, x
- Cc1cc(Br)cn2c(Cc3ccsc3)c(C(C)(C)C)nc12
  -19%, x, x, x, 35µM*, x
- COc1ccc(C[C@H](NC(=O)[C@@H]2C[C@@H](NC(=O)CSC)CCN2C(=O)CCC(=O)O)C(N)=O)cc1
  x, x, x, x, 5%, x
- C=CCOc1cccc(CNCCCN2CCOCC2)c1
  14µM*, -4%, 0%, -1%, 3%, -7%
- C=CCOc1ccccc1CNCCCN1CCOCC1
  -3%, 2%, 2%, -6%, u, -3%
- Cc1ccc(NC(=O)CN(C)C(=O)c2ccc(S(=O)(=O)Nc3ccc(Cl)cc3)cc2)cc1
  x, x, x, x, 7.9µM*, x
- O=C(Cc1cccc(F)c1)N1C[C@@H](CO)[C@H](c2ccccn2)C1
  x, x, x, x, 14%, x
- O=C(c1ccc(OCc2cn3ccccc3n2)cc1)N1CCN(c2ncccn2)CC1
  x, x, x, x, 4%, x
- Cc1cccc(C)c1NC(=O)CN1CCN(C(=O)c2ccc(OCc3cn4ccccc4n3)cc2)CC1
  x, 45µM*, u, -11%, 7%, 8%
- c1ccc(-c2noc(CN3CCCC3c3ccsc3)n2)nc1 (stereo not drawn)
  x, x, x, x, 11%, x
- CCOC(=O)Nc1nnc(-c2ccc(OC)cc2)s1
  13µM*, 2%, 0%, -7%, 25%, 5%
- COc1ccc(-c2nnc(NC(=O)c3ccco3)s2)cc1
  x, 40µM*, 6%, -4%, -24%, 2%
- COc1cccc(-c2nnc(NC(=O)c3ccco3)s2)c1
  -15%, 1%, 2%, -2%, u, 12%
- COc1ccc(/C=C/c2nnc(NC(=O)COc3ccc(C)cc3)s2)cc1
  16µM*, -3%, -4%, -2%, 9%, -17%
- COc1ccc2nc(NC(=O)C3CCCO3)sc2c1 (stereo not drawn)
  0%, -2%, -1%, -9%, u, 6%

Single values from the results shown:
ClpP mod, CCCc1nc2c(C)cc(Br)cn2c1Cc1ccsc1 reads -5%
12-LOX inh, c1ccc(-c2noc(CN3CCCC3c3ccsc3)n2)nc1 (stereo not drawn) reads 11%

Single records, as listed above. Values in the order: ClpP mod | TDP1 inh | Rango-impB inh | PTAP TSG101 blk | 12-LOX inh | Rango release inh
CC(=O)c1ccccc1-c1ccc2c(c1)CC(CNC(=O)Cc1c[nH]c3ccccc13)O2 (stereo not drawn) as listed: x | x | x | x | 2% | x
Cc1cccc(NC(=O)COC(=O)c2ccc3c(=O)n4c(nc3c2)CCC4)c1 as listed: -8% | 4% | u | -2% | -3% | 0%
